{"source": "ChEMBL document CHEMBL4706659", "about": "“Design, synthesis and biological evaluation of novel 2,4-diaryl pyrimidine derivatives as selective EGFR inhibitors” (Eur J Med Chem, 2021)", "test_system": "L02", "assay": "Cytotoxicity against human L02 cells assessed as reduction in cell viability by MTT assay", "assay_type": "cell-based"}
{"molecule": "C=CC(=O)Nc1cc(Nc2nccc(-c3cn(C)c4ccccc34)n2)c(OC)cc1N(C)CCN(C)C", "note": "[OSIMERTINIB]", "values": [{"measurement": "IC50", "result": 1980, "unit": "nM"}]}
